Apparent affinities of Ab-91 variants for a coronavirus HR2 peptide

Data: MIT Lincoln Laboratory AlphaSeq set, Engelhart et al. 2022, doi:10.1038/s41597-022-01779-4, as distributed in FLAb.

Target: peptide PDVDLGDISGINAS, taken from heptad repeat 2 (HR2) of SARS-CoV-2 spike.

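The parent was found by panning a naive human phage display library on the peptide. The library (AAYL51) carries one to three amino acid substitutions per variant, with no insertions or deletions. AlphaSeq pools MATa yeast showing the antibodies with MATalpha yeast showing the peptide. The frequency of each diploid, read from paired DNA barcodes, reflects how well the two displayed proteins bind. The ratio of observed to expected reads was calibrated, replicate by replicate, on BCL2-family standards whose Kd was known from biolayer interferometry. There are three technical replicates.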

Each scFv is VL, the linker GGGGSGGGGSGGGGS, VH, as in the parent Ab-91, and differs from it in the CDRs of the heavy chain only.
VL: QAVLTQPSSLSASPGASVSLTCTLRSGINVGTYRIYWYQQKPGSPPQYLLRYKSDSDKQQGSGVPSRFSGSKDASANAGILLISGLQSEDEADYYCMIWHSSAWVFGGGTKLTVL
VH: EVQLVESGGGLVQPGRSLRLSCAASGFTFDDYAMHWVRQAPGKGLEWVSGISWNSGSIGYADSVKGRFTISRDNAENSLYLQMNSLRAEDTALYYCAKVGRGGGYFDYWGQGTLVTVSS

Positions count from residue 1 of the parent VH; H35P puts P in place of H. Affinities are written as log10 Kd with Kd in nM; a lower number is a better binder. The mean shown is taken over the replicates in which the pair was detected. An entry "ND" has no value in the source: the pair was not observed among the diploids in that replicate. This suggests poor binding but is not conclusive.

{"changes": "H35P G100F G103Y", "replicates, log10 nM": "ND / ND / ND", "log10 Kd (nM), mean": "ND", "empty controls": "0/9"}
{"changes": "N54V G104P Y108E", "replicates, log10 nM": "ND / ND / ND", "log10 Kd (nM), mean": "ND", "empty controls": "1/9 (2.95)"}
{"changes": "I58Q S63V G103Y", "replicates, log10 nM": "ND / ND / ND", "log10 Kd (nM), mean": "ND", "empty controls": "0/9"}
{"changes": "H35G S57G", "replicates, log10 nM": "4.22 / 4.51 / 5.04", "log10 Kd (nM), mean": "4.59", "empty controls": "8/9 (4.51)"}
{"changes": "D62I S63P V99P", "replicates, log10 nM": "2.44 / 2.55 / 2.65", "log10 Kd (nM), mean": "2.55", "empty controls": "6/9 (5.09)"}
{"changes": "I51K S57H G103S", "replicates, log10 nM": "ND / ND / ND", "log10 Kd (nM), mean": "ND", "empty controls": "0/9"}
{"changes": "F27S Y32L Y105D", "replicates, log10 nM": "4.48 / 6.19 / 5.09", "log10 Kd (nM), mean": "5.25", "empty controls": "4/9 (4.17)"}
{"changes": "S52M S57M I58Y", "replicates, log10 nM": "ND / ND / ND", "log10 Kd (nM), mean": "ND", "empty controls": "0/9"}
{"changes": "V64W R101C F106K", "replicates, log10 nM": "ND / ND / ND", "log10 Kd (nM), mean": "ND", "empty controls": "1/9 (4.75)"}
{"changes": "D30K G56C G100C", "replicates, log10 nM": "ND / ND / ND", "log10 Kd (nM), mean": "ND", "empty controls": "0/9"}
{"changes": "T28E A33Q W53Q", "replicates, log10 nM": "4.92 / 5.03 / 5.74", "log10 Kd (nM), mean": "5.23", "empty controls": "6/9 (5.00)"}
{"changes": "T28P Y60A", "replicates, log10 nM": "4.45 / 4.21 / ND", "log10 Kd (nM), mean": "4.33", "empty controls": "1/9 (3.65)"}
{"changes": "T28M Y32C D62T", "replicates, log10 nM": "ND / 3.64 / 3.35", "log10 Kd (nM), mean": "3.49", "empty controls": "0/9"}
{"changes": "W53K N54W V64R", "replicates, log10 nM": "ND / ND / ND", "log10 Kd (nM), mean": "ND", "empty controls": "2/9 (4.64)"}
{"changes": "G102E G104M Y108T", "replicates, log10 nM": "1.25 / 1.22 / 0.52", "log10 Kd (nM), mean": "1.00", "empty controls": "3/9 (4.10)"}
{"changes": "D31M M34A W53I", "replicates, log10 nM": "ND / ND / ND", "log10 Kd (nM), mean": "ND", "empty controls": "1/9 (4.49)"}
{"changes": "H35E I51Q F106L", "replicates, log10 nM": "ND / ND / ND", "log10 Kd (nM), mean": "ND", "empty controls": "0/9"}
{"changes": "D30A H35T G59E", "replicates, log10 nM": "3.67 / 5.21 / 5.28", "log10 Kd (nM), mean": "4.72", "empty controls": "3/9 (4.25)"}
{"changes": "F27L G50A", "replicates, log10 nM": "ND / ND / ND", "log10 Kd (nM), mean": "ND", "empty controls": "4/9 (4.21)"}
{"changes": "G26W G100L F106W", "replicates, log10 nM": "ND / ND / ND", "log10 Kd (nM), mean": "ND", "empty controls": "3/9 (5.01)"}
{"changes": "S55A V64F R101F", "replicates, log10 nM": "1.61 / 1.56 / 1.19", "log10 Kd (nM), mean": "1.45", "empty controls": "6/9 (5.26)"}

Three control strains display no target. For library AAYL51, 21% of the pairings with them gave a signal, with a median of 4.54 and one signal in twenty below 3.26, so weak values seen in few replicates may be background. For each scFv, signals with the empty controls are counted beside the result, with their mean in brackets. In this assay the parent's reference entry averaged 1.86; its copy inside this library read 0.88.